## AlphaSeq binding of Ab-14 light chain variants to a spike HR2 peptide

Data: MIT Lincoln Laboratory AlphaSeq set, Engelhart et al. 2022, doi:10.1038/s41597-022-01779-4, as distributed in FLAb.

Binding partner: SARS-CoV-2 spike HR2 peptide, sequence PDVDLGDISGINAS.

Ab-14 is the parent antibody, in scFv form: VH, then the linker GGGGSGGGGSGGGGS, then VL. The heavy chain is unchanged in all variants.
VH: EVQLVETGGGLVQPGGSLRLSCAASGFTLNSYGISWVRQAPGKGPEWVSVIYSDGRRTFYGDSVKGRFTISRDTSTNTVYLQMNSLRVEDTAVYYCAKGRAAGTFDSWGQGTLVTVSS
VL: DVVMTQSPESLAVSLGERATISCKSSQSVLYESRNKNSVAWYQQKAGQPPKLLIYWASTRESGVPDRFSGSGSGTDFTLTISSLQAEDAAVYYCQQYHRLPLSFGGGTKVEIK

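The parent was found by panning a naive human phage display library on the peptide. In library AAYL50, one, two or three CDR residues were substituted; doubles and triples were drawn at random. In AlphaSeq, yeast of one mating type display the scFv and yeast of the other type display the target. Binding brings cells together so that they mate, and sequencing counts the barcode pairs among the diploids. Read counts were normalised to the haploid input and turned into Kd by a linear fit to BCL2-family pairs of known affinity, for each replicate. There are three technical replicates.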

Changes read parent residue, position, new residue, counted from the first residue of the VL shown.
Every variant below is changed at P101 of the VL (sequential numbering).
Kd is apparent (estimated from mating counts) and averaged on the log scale over replicates with a signal. Smaller is tighter.
A pair that was not seen in any replicate is written "nd"; this usually means weak binding, but a binder can also be missed.
Empty control strains, which show no peptide, gave a signal in 18% of pairings with library AAYL50; the median was 15 µM and 95% of these signals were weaker than 970 nM. No background was subtracted.

Variant L30E R60K P101K showed 6.7 µM (1 of 3 replicates). For N35I A40V P101V, the assay gave 26 µM (2 of 3 replicates). With K36T E61A P101V the result was 2.6 mM (1 of 3 replicates). With K24P W56I P101V the result was 360 µM (1 of 3 replicates). Variant R34Q R99F P101V showed nd (0 of 3 replicates). For W56L Q96L P101R, the assay gave 19 nM (3 of 3 replicates). Variant E32C N37A P101G showed nd (0 of 3 replicates). Variant A40V H98K P101K showed 190 µM (1 of 3 replicates). Variant S26T N35V P101Y gave 15 µM (3 of 3 replicates).

For Y31H R60A P101N, the assay gave nd (0 of 3 replicates). Variant S26C E61K P101V gave nd (0 of 3 replicates). With W56A R99W P101L the result was 5.6 nM (3 of 3 replicates). For S38G A57D P101S, the assay gave 500 nM (3 of 3 replicates). Variant Y31V P101E gave nd (0 of 3 replicates). Variant T59G L100I P101S showed 5.4 µM (3 of 3 replicates). For L30P H98V P101I, the assay gave nd (0 of 3 replicates). Variant Y31H S62T P101V gave nd (0 of 3 replicates). For S25C N37K P101T, the assay gave 71 nM (3 of 3 replicates).

Variant R99S P101N L102R gave 41 nM (3 of 3 replicates). Variant L100M P101Y gave 1.9 nM (3 of 3 replicates). For K36V W56R P101S, the assay gave 7.4 µM (1 of 3 replicates). With S62G P101N L102G the result was 190 µM (2 of 3 replicates). With A40M E61T P101Y the result was nd (0 of 3 replicates). Variant R34P Q96E P101L gave nd (0 of 3 replicates). For H98C P101M S103P, the assay gave 31 µM (1 of 3 replicates). For W56F R99M P101R, the assay gave 52 µM (1 of 3 replicates). With P101M L102N S103R the result was 100 nM (1 of 3 replicates).

With S62Y L100T P101W the result was 2.1 nM (3 of 3 replicates). Variant A57F T59P P101N gave 7.4 µM (1 of 3 replicates). Variant V39C P101N gave 5.9 µM (1 of 3 replicates). For E32R A40L P101F, the assay gave nd (0 of 3 replicates). Variant Y31I P101C S103I gave nd (0 of 3 replicates). For W56K Q95I P101W, the assay gave nd (0 of 3 replicates). Variant E61M Q96A P101V showed 7.4 nM (3 of 3 replicates). With R34C R60Y P101T the result was nd (0 of 3 replicates).

The last 2 entries again:

changes	Kd	detected
E61M Q96A P101V	7.4 nM	3/3
R34C R60Y P101T	nd	0/3